Measurements as given in ChEMBL document CHEMBL2177012, “Inhibitor of ovarian cancer cells growth by virtual screening: a new thiazole derivative targeting human thymidylate synthase” (J Med Chem, 2012).

The chains behind the UniProt entries cited, without tags or fusion partners. Where a name states a change or a piece, a line headed by the entry shows the natural chain unless it says otherwise.
UniProt P04818: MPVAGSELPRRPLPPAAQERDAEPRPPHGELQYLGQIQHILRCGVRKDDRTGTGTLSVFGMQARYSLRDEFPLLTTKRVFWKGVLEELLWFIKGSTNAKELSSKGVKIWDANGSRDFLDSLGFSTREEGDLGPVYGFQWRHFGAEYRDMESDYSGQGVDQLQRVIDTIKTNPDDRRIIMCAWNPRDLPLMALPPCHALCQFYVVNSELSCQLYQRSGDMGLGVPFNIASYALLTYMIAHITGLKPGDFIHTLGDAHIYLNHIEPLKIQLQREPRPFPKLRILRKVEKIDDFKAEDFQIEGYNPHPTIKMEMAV

Molecular target: Thymidylate synthase (Homo sapiens, UniProt P04818)
Assay: Inhibition of human thymidylate synthase expressed in Escherichia coli incubated for 1 hr assessed as increase in mTHF Km value by spectrophotometry based Lineweaver-Burk method relative to untreated control

fold change (FC): 3.5
SMILES: O=C(CC1S/C(=N\N=C\c2ccccc2O)N=C1O)Nc1cccc(C(F)(F)F)c1 (stereo unspecified)
